Data published in ChEMBL document CHEMBL5042475 (J Med Chem, 2021).

Protein sequences, listed by entry. Tags and fused reporters are not part of them. Lines headed by an entry give the natural chain unless they say otherwise; changes in a name come on top.
UniProt Q9GZQ6: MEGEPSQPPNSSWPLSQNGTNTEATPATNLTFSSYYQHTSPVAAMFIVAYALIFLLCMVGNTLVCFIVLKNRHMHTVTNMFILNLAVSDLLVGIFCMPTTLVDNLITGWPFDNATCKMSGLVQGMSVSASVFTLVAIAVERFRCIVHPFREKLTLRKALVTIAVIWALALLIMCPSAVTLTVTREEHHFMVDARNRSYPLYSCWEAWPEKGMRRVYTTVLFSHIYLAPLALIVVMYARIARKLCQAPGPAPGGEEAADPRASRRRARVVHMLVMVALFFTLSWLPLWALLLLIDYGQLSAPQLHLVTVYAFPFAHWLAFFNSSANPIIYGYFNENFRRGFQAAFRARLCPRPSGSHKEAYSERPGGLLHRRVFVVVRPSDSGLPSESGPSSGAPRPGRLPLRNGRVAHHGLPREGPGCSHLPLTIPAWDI

Assays:
[1] = molecular target: T1, Neuropeptide FF receptor 1 (Homo sapiens, UniProt Q9GZQ6); test: Agonist activity at human NPFF1 receptor expressed in HEK293 cells assessed as reduction in forskolin- stimulated cAMP level; assay type: functional, cell-based
[2] = molecular target: T1, Neuropeptide FF receptor 1; test: Agonist activity at human NPFF1R expressed in HEK293 cells by dynamic mass redistribution assay; assay type: functional, cell-based
[3] = molecular target: T1, Neuropeptide FF receptor 1; test: Displacement of [125I]-1DMeNPFF from recombinant human NPFF1 receptor expressed in CHO cells by TopCount scintillation counting method; assay type: cell-based

CC(C)C[C@H](NC(=O)[C@H](CC(N)=O)NC(=O)[C@@H]1CCCN1C(=O)[C@@H](N)C(C)C)C(=O)N1CCC[C@H]1C(=O)N[C@@H](CCC(N)=O)C(=O)N[C@@H](CCCNC(=N)N)C(=O)N[C@@H](Cc1ccccc1)C(N)=O
EC50 [1]: 50 nM | EC50 [2]: 30 nM | Ki [3]: 0.01 nM
